{
  "source": "patent US20150361503A1",
  "about": "“METHODS FOR SELECTING THERAPEUTICS FOR TREATMENT OF HER2+ CANCERS” (Merrimack Pharmaceuticals, Inc., priority 2014, published 2015)",
  "tested_on": "HER2+ cell lines",
  "assay": "In vitro cell growth assays: drug combination effects (CellTiter-Glo cell viability)",
  "format": "cell-based",
  "settings": "presence of 5 nM exogenous HRG, regardless of genetic background",
  "experimental": "Combination effects between MM-111, trastuzumab, lapatinib, MK-2206 and trametinib are evaluated by CTG cell viability assays. Cells (BT474-M3, NCI-N87, NCI-N87-PIK3CA(wt), NCI-N87-PIK3CA(H1047R), NCI-N87-PIK3CA(E454K), COLO-678, KYSE-410, ZR75-1, MDA-MB-361 or MDA-MB-175-VII) are seeded at 700 cells per 384-well plate in 10% FBS cell growth medium and treated with the five drugs, separately or in combination, at […], with and without 5 nM HRG-β1 pre-stimulation (for four hours). Cell viability was determined 72 hours later with CellTiter-Glo® luminescent cell viability assay (Promega).\nCell growth inhibition (CGI) as measured by CellTiter Glow® (CTG) assay over the 96-hour in vitro culture [CTGCTRL−CTGTREAT)/CTGCTRL] was described using a multivariate linear regression function of the Log10 drug concentrations (Ci):\nWhere N=number of input drugs (5: MM-111, lapatinib, trastuzumab, MK-2206, and GSK-1120212), and βi=regression coefficients, estimated by maximum likelihood estimation.\nTo assess the foregoing computational predictions experimentally, in vitro proliferative responses to MM-111, trastuzumab, and lapatinib combination treatments (MTL) were tested in eight HER2+ cell lines, as well as AKT and MEK inhibitor combinations, in the presence and absence of 5 nM exogenous HRG. […]",
  "data": [
    {"substance": "trastuzumab", "values": [
      {"measurement": "effect of HRG on sensitivity of cells to the drug (cell growth inhibition)", "result": "desensitizes"}
    ]}
  ]
}
